Data: patent US9000184B2, “Cyclohexane-1,2′-naphthalene-1′,2″-imidazol compounds and their use as BACE inhibitors” (AstraZeneca AB, priority 2012, dated 2015)

By UniProt entry, the sequences of proteins in these tests, tags left out. Residues count along the entry.
UniProt P56817, 22-460: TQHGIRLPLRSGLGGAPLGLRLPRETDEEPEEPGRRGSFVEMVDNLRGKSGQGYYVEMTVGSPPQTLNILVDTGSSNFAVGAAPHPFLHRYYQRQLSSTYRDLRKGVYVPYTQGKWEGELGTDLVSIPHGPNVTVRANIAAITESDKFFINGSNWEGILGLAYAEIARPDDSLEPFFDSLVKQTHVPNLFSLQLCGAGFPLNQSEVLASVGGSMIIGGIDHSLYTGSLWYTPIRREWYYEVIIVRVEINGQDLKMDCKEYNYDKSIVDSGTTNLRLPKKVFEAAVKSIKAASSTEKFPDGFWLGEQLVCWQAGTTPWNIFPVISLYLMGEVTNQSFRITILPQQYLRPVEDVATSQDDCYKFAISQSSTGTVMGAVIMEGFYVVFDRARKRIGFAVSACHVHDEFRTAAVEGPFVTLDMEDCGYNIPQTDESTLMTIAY

Key:
human β-Secretase [1] = molecular target: T1, human β-Secretase (Homo sapiens (Human), UniProt P56817); assay: TR-FRET assay; assay type: biochemical; conditions: sBACE-Fc 2.7 μg/ml, substrate 100 nM, pH 4.5, 15 minutes at RT
Method: The β-secretase enzyme used in the TR-FRET is prepared as follows:
(§1) The cDNA for the soluble part of the human β-Secretase (AA 1-AA 460) was cloned using the ASP2-Fc10-1-IRES-GFP-neoK mammalian expression vector. The gene was fused to the Fc domain of IgG1 (affinity tag) and stably cloned into HEK 293 cells.
(§2) The enzyme (truncated form) was diluted to 6 μg/mL (stock 1.3 mg/mL) and the TruPoint BACE1 Substrate to 200 nM (stock 120 μM) in reaction buffer (NaAcetate, chaps, triton x-100, EDTA pH4.5). Enzyme and compound in dimethylsulphoxide (final DMSO concentration 5%) was mixed and pre-incubated for 10 minutes at RT. Substrate was then added and the reaction was incubated for 15 minutes at RT. The reaction was stopped with the addition of 0.35 vol Stop solution (NaAcetate, pH 9). The fluorescence of the product was measured on a Victor II plate reader with excitation wavelengths of 340-485 nm and emission wavelengths of 590-615 nm. […] The dimethylsulphoxide control, instead of test compound, defined the 100% activity level and 0% activity was defined by wells lacking enzyme (replaced with reaction buffer) or by a saturating dose of a known inhibitor, 2-amino-6-[3-(3-methoxyphenyl)phenyl]-3,6-dimethyl-5H-pyrimidin-4-one.

human β-Secretase [2] = molecular target: T1, human β-Secretase; assay: Diluted TR-FRET assay; assay type: biochemical; conditions: footnote a: diluted FRET assay, 50 times less enzyme, 6.5 h reaction time at r.t.; read-out: IC50 in TR-FRET assay (IC50 from the diluted FRET assay)
Method: as §1, §2
Compounds with a high affinity were further tested in a diluted TR-FRET assay, conditions as described above for the TR-FRET assay, but with 50 times less enzyme and a 6.5 h long reaction time at r.t. in the dark.

IC50 (human β-Secretase [1]) | IC50 (human β-Secretase [2]) | SMILES
4870 nM |  | CC1=NC2(N=C1N)c1cc(Br)ccc1CCC21CC1 (centres unmarked) [Example 1, 7′-Bromo-5″-methyl-3′,4′-dihydrodispiro[cyclopropane-1,2′-naphthalene-1′,2″-imidazol]-4″-amine]
 | 30 nM | CC1=NC2(N=C1N)c1cc(-c3cncc(Cl)c3)ccc1CCC21CC1 (centres unmarked) [Example 4, 7′-(5-Chloropyridin-3-yl)-5″-methyl-3′,4′-dihydrodispiro[cyclopropane-1,2′-naphthalene-1′,2″-imidazol]-4″-amine]
